From patent US6130053A, “Method for selecting compounds for inhibition of neoplastic lesions” (priority 1999, dated 2000)

Tested on: SW-480 colon adenocarcinoma cells
Assay: Apoptosis inducing activity, fold induction (fold stimulation, DNA fragmentation ELISA)
Conditions: neoplastic cells

CCCOc1ccccc1-c1nc2nn[nH]c2c(=O)[nH]1 [Zaprinast]
apoptosis-inducing or growth-inhibiting properties: does not have significant apoptosis-inducing or growth-inhibiting properties
